Results: patent publication US20110009387A1, “HISTONE H2AX (HH2AX) BIOMARKER FOR FTI SENSITIVITY” (priority 2007, published 2011)

Target: farnesyl transferase (Homo sapiens, UniProt P49356)
Assay: Inhibition of farnesyl transferase
Format: biochemical

Q: How did the “inhibition of farnesyl transferase” value turn out when `NC(=O)N1CCC(CC(=O)N2CCC(C3c4ncc(Br)cc4CCc4cc(Cl)cc(Br)c43)CC2)CC1` (single isomer, unassigned) [inactive enantiomer of lonafarnib] was run?
A: fails to inhibit
